Measurements as given in publication PMC9569420 (Communications Biology, 2022).

Sequences of proteins named here, by UniProt entry; tags and fusion partners are left off. A change or cut given only in a name is not applied to a line headed by its entry. Residues count along the entry.
UniProt Q9UPE1, whole entry: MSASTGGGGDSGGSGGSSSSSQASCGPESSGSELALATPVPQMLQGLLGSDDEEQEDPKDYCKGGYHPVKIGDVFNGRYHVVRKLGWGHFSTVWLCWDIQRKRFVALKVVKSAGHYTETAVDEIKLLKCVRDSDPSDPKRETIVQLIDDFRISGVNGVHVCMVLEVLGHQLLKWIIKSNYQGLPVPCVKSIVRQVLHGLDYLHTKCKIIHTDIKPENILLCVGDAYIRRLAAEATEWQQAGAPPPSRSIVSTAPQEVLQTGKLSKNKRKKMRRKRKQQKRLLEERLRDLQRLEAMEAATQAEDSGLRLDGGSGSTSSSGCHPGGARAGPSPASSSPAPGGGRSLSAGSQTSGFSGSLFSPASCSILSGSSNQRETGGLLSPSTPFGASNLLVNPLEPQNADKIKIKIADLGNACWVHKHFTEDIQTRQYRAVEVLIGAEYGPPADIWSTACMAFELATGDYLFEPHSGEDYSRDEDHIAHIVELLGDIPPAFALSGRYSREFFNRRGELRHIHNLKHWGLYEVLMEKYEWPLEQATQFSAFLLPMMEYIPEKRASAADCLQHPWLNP
UniProt P00519, whole entry: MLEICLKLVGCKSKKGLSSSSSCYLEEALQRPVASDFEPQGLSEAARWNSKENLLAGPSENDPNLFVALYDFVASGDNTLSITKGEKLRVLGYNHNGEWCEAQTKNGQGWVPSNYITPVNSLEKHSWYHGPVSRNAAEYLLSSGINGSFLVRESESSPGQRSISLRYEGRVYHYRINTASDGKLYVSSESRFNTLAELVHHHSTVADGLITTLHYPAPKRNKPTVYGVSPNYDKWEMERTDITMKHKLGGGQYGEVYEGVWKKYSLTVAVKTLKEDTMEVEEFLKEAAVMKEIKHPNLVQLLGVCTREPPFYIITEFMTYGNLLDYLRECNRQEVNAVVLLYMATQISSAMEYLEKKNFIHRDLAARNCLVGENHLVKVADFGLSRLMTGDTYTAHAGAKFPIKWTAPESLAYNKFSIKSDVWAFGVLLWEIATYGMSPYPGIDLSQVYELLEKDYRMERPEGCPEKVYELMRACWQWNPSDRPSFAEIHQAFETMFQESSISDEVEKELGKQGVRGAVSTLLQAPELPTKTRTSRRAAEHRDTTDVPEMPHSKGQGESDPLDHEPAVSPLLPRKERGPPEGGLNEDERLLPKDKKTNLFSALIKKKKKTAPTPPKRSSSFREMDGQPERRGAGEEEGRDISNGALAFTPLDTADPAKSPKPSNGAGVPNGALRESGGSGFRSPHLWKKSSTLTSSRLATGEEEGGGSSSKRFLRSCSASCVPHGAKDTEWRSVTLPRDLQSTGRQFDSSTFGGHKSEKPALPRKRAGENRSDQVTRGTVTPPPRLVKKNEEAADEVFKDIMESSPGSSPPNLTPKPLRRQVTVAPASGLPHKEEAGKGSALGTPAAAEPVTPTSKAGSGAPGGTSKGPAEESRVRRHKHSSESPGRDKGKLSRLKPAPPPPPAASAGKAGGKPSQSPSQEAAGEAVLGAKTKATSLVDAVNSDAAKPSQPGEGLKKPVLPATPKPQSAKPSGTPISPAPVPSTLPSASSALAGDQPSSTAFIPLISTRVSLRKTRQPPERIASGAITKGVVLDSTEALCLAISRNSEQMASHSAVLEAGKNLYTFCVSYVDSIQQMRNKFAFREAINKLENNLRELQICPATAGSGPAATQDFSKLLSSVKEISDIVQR
UniProt P48730: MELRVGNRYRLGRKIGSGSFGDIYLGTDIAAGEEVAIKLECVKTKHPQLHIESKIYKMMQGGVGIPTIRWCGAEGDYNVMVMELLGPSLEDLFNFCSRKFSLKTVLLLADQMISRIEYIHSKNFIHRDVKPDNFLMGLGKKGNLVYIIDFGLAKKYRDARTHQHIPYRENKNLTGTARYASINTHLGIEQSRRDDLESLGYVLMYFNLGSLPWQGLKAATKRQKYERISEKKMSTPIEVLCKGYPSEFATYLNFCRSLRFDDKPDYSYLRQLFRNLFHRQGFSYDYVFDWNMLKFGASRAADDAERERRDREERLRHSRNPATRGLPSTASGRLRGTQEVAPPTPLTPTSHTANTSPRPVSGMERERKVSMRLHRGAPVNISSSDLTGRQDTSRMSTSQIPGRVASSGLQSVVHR
UniProt Q13153, whole entry: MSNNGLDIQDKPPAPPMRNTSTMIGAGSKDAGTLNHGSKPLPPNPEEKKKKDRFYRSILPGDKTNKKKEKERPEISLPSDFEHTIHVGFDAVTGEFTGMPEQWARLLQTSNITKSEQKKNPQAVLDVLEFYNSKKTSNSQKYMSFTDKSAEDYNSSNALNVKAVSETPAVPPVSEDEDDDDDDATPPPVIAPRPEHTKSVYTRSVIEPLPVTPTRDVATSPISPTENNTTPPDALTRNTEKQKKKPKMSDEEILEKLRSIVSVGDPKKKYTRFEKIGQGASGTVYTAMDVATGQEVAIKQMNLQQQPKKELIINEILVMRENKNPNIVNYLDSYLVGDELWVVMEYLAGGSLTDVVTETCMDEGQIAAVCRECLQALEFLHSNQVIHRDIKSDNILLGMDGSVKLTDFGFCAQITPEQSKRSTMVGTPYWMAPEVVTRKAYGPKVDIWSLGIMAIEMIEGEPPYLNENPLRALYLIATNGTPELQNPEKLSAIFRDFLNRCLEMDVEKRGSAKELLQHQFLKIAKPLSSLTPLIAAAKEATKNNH
UniProt P11309, whole entry: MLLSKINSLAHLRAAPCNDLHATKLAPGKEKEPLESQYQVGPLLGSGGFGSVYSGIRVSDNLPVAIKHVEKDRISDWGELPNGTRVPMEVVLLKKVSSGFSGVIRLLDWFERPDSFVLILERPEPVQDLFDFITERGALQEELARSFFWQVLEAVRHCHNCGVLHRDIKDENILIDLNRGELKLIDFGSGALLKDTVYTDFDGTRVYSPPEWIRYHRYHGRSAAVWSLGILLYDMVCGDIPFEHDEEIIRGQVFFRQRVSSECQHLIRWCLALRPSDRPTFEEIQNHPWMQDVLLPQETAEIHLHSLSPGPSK
UniProt Q9BUB5: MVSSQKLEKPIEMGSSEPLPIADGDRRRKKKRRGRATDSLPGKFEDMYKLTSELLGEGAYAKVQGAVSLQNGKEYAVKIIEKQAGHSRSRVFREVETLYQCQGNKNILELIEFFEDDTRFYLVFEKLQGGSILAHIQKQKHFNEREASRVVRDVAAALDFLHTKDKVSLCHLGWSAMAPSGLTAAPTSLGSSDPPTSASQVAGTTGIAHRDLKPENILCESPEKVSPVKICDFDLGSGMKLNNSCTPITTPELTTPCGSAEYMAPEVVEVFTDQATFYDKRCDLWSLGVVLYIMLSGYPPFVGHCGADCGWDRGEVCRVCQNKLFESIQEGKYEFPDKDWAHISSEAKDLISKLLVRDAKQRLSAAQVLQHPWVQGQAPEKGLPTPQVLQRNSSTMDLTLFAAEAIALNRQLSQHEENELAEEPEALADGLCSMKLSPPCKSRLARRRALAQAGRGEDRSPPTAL
UniProt P11362, 22-822: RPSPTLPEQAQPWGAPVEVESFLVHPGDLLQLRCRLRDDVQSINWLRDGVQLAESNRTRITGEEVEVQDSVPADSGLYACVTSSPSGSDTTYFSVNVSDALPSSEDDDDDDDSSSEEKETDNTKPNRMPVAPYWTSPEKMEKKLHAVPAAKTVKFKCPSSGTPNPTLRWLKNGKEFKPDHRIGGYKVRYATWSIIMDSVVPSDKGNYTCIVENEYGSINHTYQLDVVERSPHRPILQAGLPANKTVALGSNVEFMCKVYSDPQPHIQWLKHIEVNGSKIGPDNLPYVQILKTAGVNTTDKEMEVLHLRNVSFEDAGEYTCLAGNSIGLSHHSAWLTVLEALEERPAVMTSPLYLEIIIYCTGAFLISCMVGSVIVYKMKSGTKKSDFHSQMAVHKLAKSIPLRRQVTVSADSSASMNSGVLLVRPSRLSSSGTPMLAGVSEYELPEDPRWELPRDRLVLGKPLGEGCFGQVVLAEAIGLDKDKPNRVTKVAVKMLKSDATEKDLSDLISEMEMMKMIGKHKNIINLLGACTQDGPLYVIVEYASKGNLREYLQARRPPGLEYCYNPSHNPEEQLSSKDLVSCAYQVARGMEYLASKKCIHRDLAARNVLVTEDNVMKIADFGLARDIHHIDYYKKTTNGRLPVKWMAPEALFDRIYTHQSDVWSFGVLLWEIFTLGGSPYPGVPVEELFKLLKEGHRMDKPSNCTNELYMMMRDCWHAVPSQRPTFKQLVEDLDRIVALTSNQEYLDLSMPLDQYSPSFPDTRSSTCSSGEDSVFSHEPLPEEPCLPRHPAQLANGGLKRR
UniProt O75914, whole entry: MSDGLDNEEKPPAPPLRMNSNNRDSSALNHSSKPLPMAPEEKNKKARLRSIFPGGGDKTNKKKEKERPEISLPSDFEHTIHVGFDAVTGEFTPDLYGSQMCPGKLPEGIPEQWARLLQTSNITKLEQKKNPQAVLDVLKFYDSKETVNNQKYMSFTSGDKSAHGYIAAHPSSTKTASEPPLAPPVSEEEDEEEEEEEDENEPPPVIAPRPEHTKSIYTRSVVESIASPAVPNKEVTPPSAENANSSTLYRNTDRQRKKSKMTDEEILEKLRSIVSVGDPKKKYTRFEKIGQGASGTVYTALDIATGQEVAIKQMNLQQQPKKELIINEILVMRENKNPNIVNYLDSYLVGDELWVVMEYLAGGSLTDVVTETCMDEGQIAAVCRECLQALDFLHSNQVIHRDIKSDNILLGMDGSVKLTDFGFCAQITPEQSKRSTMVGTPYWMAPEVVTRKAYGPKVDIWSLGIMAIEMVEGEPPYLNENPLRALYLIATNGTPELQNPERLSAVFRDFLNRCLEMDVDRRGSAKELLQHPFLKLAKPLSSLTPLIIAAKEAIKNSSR
UniProt Q9H422: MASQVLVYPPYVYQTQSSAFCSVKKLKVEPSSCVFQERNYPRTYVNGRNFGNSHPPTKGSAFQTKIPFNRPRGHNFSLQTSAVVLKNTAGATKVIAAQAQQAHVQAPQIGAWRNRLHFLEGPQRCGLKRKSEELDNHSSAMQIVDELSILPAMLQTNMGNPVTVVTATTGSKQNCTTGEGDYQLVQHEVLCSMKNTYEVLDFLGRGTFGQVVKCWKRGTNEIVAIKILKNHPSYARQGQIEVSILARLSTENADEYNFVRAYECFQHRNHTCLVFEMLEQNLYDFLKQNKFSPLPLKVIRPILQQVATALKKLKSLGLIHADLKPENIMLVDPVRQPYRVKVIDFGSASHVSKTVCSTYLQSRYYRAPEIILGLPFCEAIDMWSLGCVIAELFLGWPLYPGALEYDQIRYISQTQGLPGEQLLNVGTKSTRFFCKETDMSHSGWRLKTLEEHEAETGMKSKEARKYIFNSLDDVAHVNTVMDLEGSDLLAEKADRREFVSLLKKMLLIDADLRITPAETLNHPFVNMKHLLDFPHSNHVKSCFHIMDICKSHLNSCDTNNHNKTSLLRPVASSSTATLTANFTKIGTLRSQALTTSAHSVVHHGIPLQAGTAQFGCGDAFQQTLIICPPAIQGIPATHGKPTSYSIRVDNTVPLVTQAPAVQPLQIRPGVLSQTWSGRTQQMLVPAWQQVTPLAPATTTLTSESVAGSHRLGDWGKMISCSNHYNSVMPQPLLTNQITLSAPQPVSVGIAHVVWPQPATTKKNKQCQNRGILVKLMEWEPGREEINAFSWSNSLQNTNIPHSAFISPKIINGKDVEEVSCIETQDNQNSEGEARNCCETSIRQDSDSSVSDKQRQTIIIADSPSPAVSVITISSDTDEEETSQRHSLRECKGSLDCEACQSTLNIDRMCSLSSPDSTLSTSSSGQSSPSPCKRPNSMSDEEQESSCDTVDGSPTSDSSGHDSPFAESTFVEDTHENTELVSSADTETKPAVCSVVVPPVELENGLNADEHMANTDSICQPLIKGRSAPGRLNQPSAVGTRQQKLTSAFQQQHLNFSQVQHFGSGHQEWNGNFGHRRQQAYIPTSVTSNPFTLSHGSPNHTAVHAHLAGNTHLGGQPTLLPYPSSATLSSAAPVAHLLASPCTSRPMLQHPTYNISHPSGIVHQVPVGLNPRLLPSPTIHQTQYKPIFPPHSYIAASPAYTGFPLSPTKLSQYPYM
UniProt O00311: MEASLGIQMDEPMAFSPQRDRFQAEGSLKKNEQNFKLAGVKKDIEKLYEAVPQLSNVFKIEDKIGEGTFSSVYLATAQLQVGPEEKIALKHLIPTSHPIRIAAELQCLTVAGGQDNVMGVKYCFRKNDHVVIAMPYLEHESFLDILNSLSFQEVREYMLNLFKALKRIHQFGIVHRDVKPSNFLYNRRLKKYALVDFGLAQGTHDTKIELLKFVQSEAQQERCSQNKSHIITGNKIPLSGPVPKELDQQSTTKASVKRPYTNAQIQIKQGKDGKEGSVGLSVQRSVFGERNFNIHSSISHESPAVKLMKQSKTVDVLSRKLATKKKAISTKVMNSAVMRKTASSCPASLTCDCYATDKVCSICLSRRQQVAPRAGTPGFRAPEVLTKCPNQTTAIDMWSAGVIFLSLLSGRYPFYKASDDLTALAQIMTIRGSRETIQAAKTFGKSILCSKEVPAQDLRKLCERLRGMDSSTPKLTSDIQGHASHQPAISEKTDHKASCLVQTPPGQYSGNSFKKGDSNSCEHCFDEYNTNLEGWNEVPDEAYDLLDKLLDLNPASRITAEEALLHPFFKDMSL

How the values were obtained:
HIPK4 = molecular target: T1, HIPK4 (Homo sapiens, UniProt Q8NE63); test: HotSpot kinase assay; format: biochemical; settings: 10µM
T1 construct: purchased Reaction Biology Corporation

CDK6/cyclin D1 = molecular target: T2, CDK6/cyclin D1 (Homo sapiens, UniProt Q00534); test: HotSpot kinase assay; format: biochemical; settings: 10µM
T2 construct: purchased Reaction Biology Corporation

STK25/YSK1 = molecular target: T3, STK25/YSK1 (Homo sapiens, UniProt O00506); test: HotSpot kinase assay; format: biochemical; settings: 10µM
T3 construct: purchased Reaction Biology Corporation

MYLK4 = molecular target: T4, MYLK4 (Homo sapiens, UniProt Q86YV6); test: HotSpot kinase assay; format: biochemical; settings: 10µM
T4 construct: purchased Reaction Biology Corporation

MEK2 = molecular target: T5, MEK2 (Homo sapiens, UniProt P36507); test: HotSpot kinase assay; format: biochemical; settings: 10µM
T5 construct: purchased Reaction Biology Corporation

SIK3 = molecular target: T6, SIK3 (Homo sapiens, UniProt Q9Y2K2); test: HotSpot kinase assay; format: biochemical; settings: 10µM
T6 construct: purchased Reaction Biology Corporation

YES/YES1 = molecular target: T7, YES/YES1 (Homo sapiens, UniProt P07947); test: HotSpot kinase assay; format: biochemical; settings: 10µM
T7 construct: purchased Reaction Biology Corporation

CK1g3 = molecular target: T8, CK1g3 (Homo sapiens, UniProt Q9Y6M4); test: HotSpot kinase assay; format: biochemical; settings: 10µM
T8 construct: purchased Reaction Biology Corporation

ZAK/MLTK = molecular target: T9, ZAK/MLTK (Homo sapiens, UniProt Q9NYL2); test: HotSpot kinase assay; format: biochemical; settings: 10µM
T9 construct: purchased Reaction Biology Corporation

ALK1/ACVRL1 = molecular target: T10, ALK1/ACVRL1 (Homo sapiens, UniProt P37023); test: HotSpot kinase assay; format: biochemical; settings: 10µM
T10 construct: purchased Reaction Biology Corporation

IR = molecular target: T11, IR (Homo sapiens, UniProt P06213); format: biochemical
T11 construct: purchased Reaction Biology Corporation

MSSK1/STK23 = molecular target: T12, MSSK1/STK23 (Homo sapiens, UniProt Q9UPE1); test: HotSpot kinase assay; format: biochemical; settings: 10µM
T12 construct: purchased Reaction Biology Corporation

ABL1 = molecular target: T13, ABL1 (Homo sapiens, UniProt P00519); format: biochemical; settings: 10µM
T13 construct: purchased Reaction Biology Corporation

CK1d = molecular target: T14, CK1d (Homo sapiens, UniProt P48730); test: HotSpot kinase assay; format: biochemical; settings: 10µM
T14 construct: purchased Reaction Biology Corporation

PAK1 = molecular target: T15, PAK1 (Homo sapiens, UniProt Q13153); test: HotSpot kinase assay; format: biochemical; settings: 10µM
T15 construct: purchased Reaction Biology Corporation

AMPK (A2/B1/G2) = molecular target: T16, AMPK (A2/B1/G2) (Homo sapiens, UniProt P54646); test: HotSpot kinase assay; format: biochemical; settings: 10µM
T16 construct: purchased Reaction Biology Corporation

RSK2 = molecular target: T17, RSK2 (Homo sapiens, UniProt P51812); test: HotSpot kinase assay; format: biochemical; settings: 10µM
T17 construct: purchased Reaction Biology Corporation

MLK2/MAP3K10 = molecular target: T18, MLK2/MAP3K10 (Homo sapiens, UniProt Q02779); test: HotSpot kinase assay; format: biochemical; settings: 10µM
T18 construct: purchased Reaction Biology Corporation

MLCK2/MYLK2 = molecular target: T19, MLCK2/MYLK2 (Homo sapiens, UniProt Q9H1R3); test: HotSpot kinase assay; format: biochemical; settings: 10µM
T19 construct: purchased Reaction Biology Corporation

PIM1 = molecular target: T20, PIM1 (Homo sapiens, UniProt P11309); test: HotSpot kinase assay; format: biochemical; settings: 10µM
T20 construct: purchased Reaction Biology Corporation

IRAK4 = molecular target: T21, IRAK4 (Homo sapiens, UniProt Q9NWZ3); test: HotSpot kinase assay; format: biochemical; settings: 10µM
T21 construct: purchased Reaction Biology Corporation

RIPK5 = molecular target: T22, RIPK5 (Homo sapiens, UniProt Q6XUX3); test: HotSpot kinase assay; format: biochemical; settings: 10µM
T22 construct: purchased Reaction Biology Corporation

Haspin = molecular target: T23, Haspin (Homo sapiens, UniProt Q8TF76); test: HotSpot kinase assay; format: biochemical; settings: 10µM
T23 construct: purchased Reaction Biology Corporation

LYN = molecular target: T24, LYN (Homo sapiens, UniProt P07948); test: HotSpot kinase assay; format: biochemical; settings: 10µM
T24 construct: purchased Reaction Biology Corporation

PKCIOTA = molecular target: T25, PKCIOTA (Homo sapiens, UniProt P41743); test: HotSpot kinase assay; format: biochemical; settings: 10µM
T25 construct: purchased Reaction Biology Corporation

EEF2K = molecular target: T26, EEF2K (Homo sapiens, UniProt O00418); test: HotSpot kinase assay; format: biochemical; settings: 10µM
T26 construct: purchased Reaction Biology Corporation

CDK2/cyclin E2 = molecular target: T27, CDK2/cyclin E2 (Homo sapiens, UniProt P24941); test: HotSpot kinase assay; format: biochemical; settings: 10µM
T27 construct: purchased Reaction Biology Corporation

MKK6 = molecular target: T28, MKK6 (Homo sapiens, UniProt P52564); test: HotSpot kinase assay; format: biochemical; settings: 10µM
T28 construct: purchased Reaction Biology Corporation

MNK1 = molecular target: T29, MNK1 (Homo sapiens, UniProt Q9BUB5); test: HotSpot kinase assay; format: biochemical; settings: 10µM
T29 construct: purchased Reaction Biology Corporation

CAMKK2 = molecular target: T30, CAMKK2 (Homo sapiens, UniProt Q96RR4); test: HotSpot kinase assay; format: biochemical; settings: 10µM
T30 construct: purchased Reaction Biology Corporation

AURORA C = molecular target: T31, AURORA C (Homo sapiens, UniProt Q9UQB9); test: HotSpot kinase assay; format: biochemical; settings: 10µM
T31 construct: purchased Reaction Biology Corporation

BTK = molecular target: T32, BTK (Homo sapiens, UniProt Q06187); test: HotSpot kinase assay; format: biochemical; settings: 10µM
T32 construct: purchased Reaction Biology Corporation

TTBK1 = molecular target: T33, TTBK1 (Homo sapiens, UniProt Q5TCY1); test: HotSpot kinase assay; format: biochemical; settings: 10µM
T33 construct: purchased Reaction Biology Corporation

CDK14/cyclin Y (PFTK1) = molecular target: T34, CDK14/cyclin Y (PFTK1) (Homo sapiens, UniProt O94921); test: HotSpot kinase assay; format: biochemical; settings: 10µM
T34 construct: purchased Reaction Biology Corporation

FGFR1 = molecular target: T35, FGFR1 (Homo sapiens, UniProt P11362); test: HotSpot kinase assay; format: biochemical; settings: 10µM
T35 construct: purchased Reaction Biology Corporation

PAK3 = molecular target: T36, PAK3 (Homo sapiens, UniProt O75914); test: HotSpot kinase assay; format: biochemical; settings: 10µM
T36 construct: purchased Reaction Biology Corporation

LKB1 = molecular target: T37, LKB1 (Homo sapiens, UniProt Q15831); test: HotSpot kinase assay; format: biochemical; settings: 10µM
T37 construct: purchased Reaction Biology Corporation

TEC = molecular target: T38, TEC (Homo sapiens, UniProt P42680); test: HotSpot kinase assay; format: biochemical; settings: 10µM
T38 construct: purchased Reaction Biology Corporation

HIPK3 = molecular target: T39, HIPK3 (Homo sapiens, UniProt Q9H422); test: HotSpot kinase assay; format: biochemical; settings: 10µM
T39 construct: purchased Reaction Biology Corporation

CDC7/DBF4 = molecular target: T40, CDC7/DBF4 (Homo sapiens, UniProt O00311); test: HotSpot kinase assay; format: biochemical; settings: 10µM
T40 construct: purchased Reaction Biology Corporation

CDK2/cyclin A = molecular target: T41, CDK2/cyclin A (Homo sapiens, UniProt P24941); test: HotSpot kinase assay; format: biochemical; settings: 10µM
T41 construct: purchased Reaction Biology Corporation

## CO[C@@H]1[C@H](N(C)C(=O)CCC(=O)NCc2cn(CCCS(=O)(=O)O)nn2)C[C@H]2O[C@]1(C)n1c3ccccc3c3c4c(c5c6ccccc6n2c5c31)C(=O)NC4 [CIMSS]
HIPK4
  % Enzyme Activity (relative to DMSO controls): 10.40%
CDK6/cyclin D1
  % Enzyme Activity (relative to DMSO controls): 61.17%
STK25/YSK1
  % Enzyme Activity (relative to DMSO controls): 3.00%
MYLK4
  % Enzyme Activity (relative to DMSO controls): 5.38%
MEK2
  % Enzyme Activity (relative to DMSO controls): 66.36%
SIK3
  % Enzyme Activity (relative to DMSO controls): 0.42% and 0.08%
YES/YES1
  % Enzyme Activity (relative to DMSO controls): 1.32%
CK1g3
  % Enzyme Activity (relative to DMSO controls): 95.03%
ZAK/MLTK
  % Enzyme Activity (relative to DMSO controls): 82.32%
ALK1/ACVRL1
  % Enzyme Activity (relative to DMSO controls): 69.61%
IR; 10µM
  % Enzyme Activity (relative to DMSO controls): 15.41%
IR; insulin receptor
  fold less effective than staurosporine (IC50): ~ 40 fold
MSSK1/STK23
  % Enzyme Activity (relative to DMSO controls): 67.63%
ABL1
  % Enzyme Activity (relative to DMSO controls): 4.92%
CK1d
  % Enzyme Activity (relative to DMSO controls): 100.57%
PAK1
  % Enzyme Activity (relative to DMSO controls): 7.21%
AMPK (A2/B1/G2)
  % Enzyme Activity (relative to DMSO controls): 0.66% and 0.09%
RSK2
  % Enzyme Activity (relative to DMSO controls): 1.58%
MLK2/MAP3K10
  % Enzyme Activity (relative to DMSO controls): 1.47%
MLCK2/MYLK2
  % Enzyme Activity (relative to DMSO controls): 24.42%
PIM1
  % Enzyme Activity (relative to DMSO controls): 0.79%
IRAK4
  % Enzyme Activity (relative to DMSO controls): 6.41%
RIPK5
  % Enzyme Activity (relative to DMSO controls): 22.32%
Haspin
  % Enzyme Activity (relative to DMSO controls): 49.36%
Huh-7.5 cells; 24h, 0.78125 uM
  viability (nuclei relative to the DMSO control): 82.02% and 92.58%
Huh-7.5 cells; 24h, 1.5625 uM
  viability (nuclei relative to the DMSO control): 95.02% and 79.38%
Huh-7.5 cells; 24h, 3.125 uM
  viability (nuclei relative to the DMSO control): 97.46% and 88.74%
Huh-7.5 cells; 24h, 25 uM
  viability (nuclei relative to the DMSO control): 93.3% and 92.73%
Huh-7.5 cells; 24h, 50 uM
  viability (nuclei relative to the DMSO control): 87.27% and 89.31%
Huh-7.5 cells; 72 h, 0.78125 uM
  viability (nuclei relative to the DMSO control): 98.61% and 93.6809%
Huh-7.5 cells; 72 h, 25 uM
  viability (nuclei relative to the DMSO control): 65.5% and 71.82%
Huh-7.5 cells; 72 h, 50 uM
  viability (nuclei relative to the DMSO control): 68.9% and 78.72%
LYN
  % Enzyme Activity (relative to DMSO controls): 1.83%
PKCIOTA
  % Enzyme Activity (relative to DMSO controls): 30.93%
EEF2K
  % Enzyme Activity (relative to DMSO controls): 97.05%
CDK2/cyclin E2
  % Enzyme Activity (relative to DMSO controls): 11.44%
MKK6
  % Enzyme Activity (relative to DMSO controls): 57.24%
MNK1
  % Enzyme Activity (relative to DMSO controls): 41.13%
CAMKK2
  % Enzyme Activity (relative to DMSO controls): 1.81%
AURORA C
  % Enzyme Activity (relative to DMSO controls): 2.18%
BTK
  % Enzyme Activity (relative to DMSO controls): 5.98%
TTBK1
  % Enzyme Activity (relative to DMSO controls): 66.32%
CDK14/cyclin Y (PFTK1)
  % Enzyme Activity (relative to DMSO controls): 72.89%
FGFR1
  % Enzyme Activity (relative to DMSO controls): 6.17%
PAK3
  % Enzyme Activity (relative to DMSO controls): 6.27%
LKB1
  % Enzyme Activity (relative to DMSO controls): 37.39%
TEC
  % Enzyme Activity (relative to DMSO controls): 19.75%
HIPK3
  % Enzyme Activity (relative to DMSO controls): 13.73%
CDC7/DBF4
  % Enzyme Activity (relative to DMSO controls): 3.26%
CDK2/cyclin A
  % Enzyme Activity (relative to DMSO controls): 4.94%

Values joined by “and” are separate entries in the source; they are usually repeats but may differ in a detail not shown here. Equal entries are not always repeated. Where two headings read alike, the source gives them in different places.
